Data as given in patent publication US7001587B2, “Measurement of protein synthesis rates in humans and experimental systems by use of isotopically labeled water” (The Regents of the University of California, priority 2001, dated 2006).

Assay: In vitro ^2H label exchange / label stability studies
Format: physicochemical
Details: incubation in 70% ^2H2O for 24 hr at room temperature, then hydrolysis to free AA

Substance: human serum albumin: an unlabeled protein (human serum albumin)
- ^2H incorporation in derivatized AA: no ^2H incorporation was observed
